Results as given in US10953011B2, “Methods of treating virally associated cancers with histone deacetylase inhibitors” (priority 2019, dated 2021).

Target: T1, HDAC8 (Homo sapiens, UniProt Q9BY41)
T1 sequence (Q9BY41 1-377): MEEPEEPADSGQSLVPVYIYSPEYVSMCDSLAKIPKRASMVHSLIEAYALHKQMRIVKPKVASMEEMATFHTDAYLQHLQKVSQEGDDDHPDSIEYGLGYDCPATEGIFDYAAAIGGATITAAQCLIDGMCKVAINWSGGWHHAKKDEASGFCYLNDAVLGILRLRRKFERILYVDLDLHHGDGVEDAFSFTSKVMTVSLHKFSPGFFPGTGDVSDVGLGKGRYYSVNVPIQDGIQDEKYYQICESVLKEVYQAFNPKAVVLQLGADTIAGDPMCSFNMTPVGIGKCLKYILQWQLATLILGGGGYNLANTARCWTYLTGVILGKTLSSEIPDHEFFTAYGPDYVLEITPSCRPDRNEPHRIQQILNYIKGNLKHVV
Test: biochemical

`O=C(CCCCCCC(=O)Nc1ccccc1)NO` [SAHA, suberanilohydroxamic acid] was tested, and the IC50 was about 46 µM.
